# Membrane permeability of cyclic peptides

Collected by the curators of CycPeptMPDB (Li et al. 2023) from Townsend et al. 2020, doi:10.26434/chemrxiv.13335941.v1.

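Lipid, pH, incubation time, direction and concentration are not recorded in the data file. Other peptides of the study may be missing here. Peptides that the database sets to -10, its floor, are left out.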

PAMPA is the parallel artificial membrane permeability assay, which has no cells and reads passive diffusion. Permeability is given as log10 of P in cm/s; higher (less negative) is more permeable.

| compound | PAMPA (log10 cm/s) |
|---|---|
| CC(C)C[C@@H]1C(=O)N2CCC[C@H]2C(=O)N(C)[C@H](CC(C)C)C(=O)N[C@@H](Cc2ccccc2)C(=O)N2CCC[C@H]2C(=O)N[C@@H](Cc2ccccc2)CC(=O)N[C@H](CC(C)C)C(=O)N1C | -5.49 |
| CC(C)C[C@@H]1C(=O)N[C@@H](Cc2ccccc2)C(=O)N2CCC[C@H]2C(=O)N[C@@H](Cc2ccccc2)CC(=O)N(Cc2ccccc2)CC(=O)N[C@@H](Cc2ccccc2)CC(=O)N2CCC[C@H]2C(=O)N1C | -6.18 |
| CC(C)C[C@@H]1NC(=O)[C@@H]2CCCN2C(=O)[C@@H](CC(C)C)N(C)C(=O)[C@H](CC(C)C)NC(=O)[C@H](C)N(C)C(=O)[C@H]2CCCN2C(=O)[C@H](Cc2ccccc2)NC1=O | -5.32 |
| CC(C)C[C@@H]1NC(=O)[C@@H](CC(C)C)N(C)C(=O)[C@@H](C)NC(=O)[C@@H]2CCCN2C(=O)[C@H](Cc2ccccc2)NC(=O)[C@H](CC(C)C)N(C)C(=O)[C@@H]2CCCN2C1=O | -5.63 |
| CC(C)C[C@@H]1NC(=O)[C@@H](C)NC(=O)[C@H]2CCCN2C(=O)[C@H](Cc2ccccc2)NC(=O)[C@H](CC(C)C)N(C)C(=O)[C@@H]2CCCN2C(=O)[C@@H](CC(C)C)N(C)C1=O | -5.61 |
| CC(C)C[C@@H]1NC(=O)C[C@H](Cc2ccccc2)NC(=O)[C@H](Cc2ccccc2)NC(=O)[C@@H](CC(C)C)N(C)C(=O)[C@H]2CCCN2C(=O)C[C@H](Cc2ccccc2)NC1=O | -5.54 |
| CCCN1CC(=O)N[C@@H](CC(C)C)C(=O)N(C)[C@H](CC(C)C)C(=O)N2CCC[C@@H]2C(=O)N[C@@H](CC(C)C)C(=O)N[C@@H](Cc2ccccc2)C(=O)N2CCC[C@H]2C1=O | -5.61 |
| CC(C)C[C@@H]1NC(=O)[C@H]2CCCN2C(=O)[C@H](CC(C)C)N(C)C(=O)[C@@H](CC(C)C)N(C)C(=O)[C@H](C)NC(=O)[C@H](Cc2ccccc2)NC1=O | -5.18 |
| CC(C)C[C@@H]1C(=O)N[C@@H](Cc2ccccc2)C(=O)N2CCC[C@H]2C(=O)N[C@@H](Cc2ccccc2)CC(=O)N[C@H](CC(C)C)C(=O)N(C)[C@H](CC(C)C)C(=O)N2CCC[C@@H]2C(=O)N1C | -5.33 |
| CC(C)C[C@@H]1NC(=O)[C@H]2CCCN2C(=O)[C@H](CC(C)C)NC(=O)[C@@H](CC(C)C)NC(=O)[C@@H](C)NC(=O)[C@H](Cc2ccccc2)NC1=O | -6.80 |
| CC(C)C[C@@H]1C(=O)N(Cc2ccccc2)CC(=O)N2CCC[C@H]2C(=O)N(C)[C@@H](CC(C)C)C(=O)N[C@@H](Cc2ccccc2)C(=O)N2CCC[C@H]2C(=O)N[C@@H](C)C(=O)N1C | -5.80 |
| CC(C)C[C@H]1NC(=O)[C@@H]2CCCN2C(=O)[C@H](CC(C)C)N(C)C(=O)[C@H](CC(C)C)N(C)C(=O)[C@@H](C)NC(=O)[C@@H]2CCCN2C(=O)[C@H](Cc2ccccc2)NC1=O | -5.95 |
| CC(C)C[C@@H]1C(=O)N[C@@H](Cc2ccccc2)C(=O)N2CCC[C@@H]2C(=O)N[C@H](C)C(=O)N(C)[C@H](CC(C)C)C(=O)N[C@@H](Cc2ccccc2)CC(=O)N2CCC[C@@H]2C(=O)N1C | -5.91 |
| CCCN1CC(=O)N(C)[C@@H](CC(C)C)C(=O)N[C@@H](CC(C)C)C(=O)N2CCC[C@@H]2C(=O)N[C@H](CC(C)C)C(=O)N[C@@H](Cc2ccccc2)C1=O | -5.00 |
| CC(C)C[C@@H]1C(=O)N(C)[C@@H](CC(C)C)C(=O)N2CCC[C@@H]2C(=O)N(Cc2ccccc2)CC(=O)N[C@@H](Cc2ccccc2)C(=O)N[C@H](C)C(=O)N1C | -5.26 |
| CC(C)C[C@@H]1NC(=O)[C@@H]2CCCN2C(=O)CN(Cc2ccccc2)C(=O)[C@@H](CC(C)C)N(C)C(=O)C[C@H](Cc2ccccc2)NC(=O)[C@@H]2CCCN2C(=O)[C@H](Cc2ccccc2)NC1=O | -5.25 |

The last 2 entries again:

| compound | PAMPA (log10 cm/s) |
|---|---|
| CC(C)C[C@@H]1C(=O)N(C)[C@@H](CC(C)C)C(=O)N2CCC[C@@H]2C(=O)N(Cc2ccccc2)CC(=O)N[C@@H](Cc2ccccc2)C(=O)N[C@H](C)C(=O)N1C | -5.26 |
| CC(C)C[C@@H]1NC(=O)[C@@H]2CCCN2C(=O)CN(Cc2ccccc2)C(=O)[C@@H](CC(C)C)N(C)C(=O)C[C@H](Cc2ccccc2)NC(=O)[C@@H]2CCCN2C(=O)[C@H](Cc2ccccc2)NC1=O | -5.25 |